# Apparent affinities of Ab-14 variants for a coronavirus HR2 peptide

Antigen: PDVDLGDISGINAS, a 14-residue peptide of the SARS-CoV-2 spike HR2 region.

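Variants in AAYL50 differ from the parent at up to three CDR positions; double and triple changes were sampled at random. AlphaSeq pools MATa yeast showing the antibodies with MATalpha yeast showing the peptide. After mating in shaken culture at 30 °C for 16 h, diploids were selected and their barcode pairs sequenced. Each replicate has its own calibration line, from reference interactions of the BCL2 family. The assay was run in three technical replicates.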

Each scFv is VH, a (GGGGS)3 linker, VL, as in the parent Ab-14, and differs from it in the CDRs of the light chain only.
VH: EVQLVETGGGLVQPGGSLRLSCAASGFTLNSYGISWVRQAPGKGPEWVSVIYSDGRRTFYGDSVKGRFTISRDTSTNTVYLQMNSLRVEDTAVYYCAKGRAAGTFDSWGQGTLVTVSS
VL: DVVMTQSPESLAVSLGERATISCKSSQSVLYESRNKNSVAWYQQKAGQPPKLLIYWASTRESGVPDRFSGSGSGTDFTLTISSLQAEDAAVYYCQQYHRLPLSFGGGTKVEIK

Positions count from residue 1 of the parent VL; Q27S puts S in place of Q. Affinities are written as log10 Kd with Kd in nM; a lower number is a better binder. A pair that was not seen in that replicate is written "ND"; this usually means weak binding, but a binder can also be missed. Empty control strains, which show no peptide, gave a signal in 18% of pairings with library AAYL50; the median was 4.19 and 95% of these signals were weaker than 2.99. No background was subtracted. The control count says in how many pairings with the empty strains this scFv gave a signal, with their mean in brackets.

| # | changes | replicates, log10 nM | empty controls |
|---|---|---|---|
| 1 | Q27S S38R | 3.06 2.43 2.65 | 1/9 (3.27) |
| 2 | K24N L30A Q96D | 1.57 1.66 1.85 | 4/9 (4.30) |
| 3 | E32H R60V | 2.18 2.56 2.94 | 4/9 (4.17) |
| 4 | S33A E61M S62N | 1.21 0.94 1.23 | 2/9 (4.44) |
| 5 | R99E S103L | 2.38 2.10 2.90 | 3/9 (4.68) |
| 6 | S25Y N35G N37L | 1.98 1.92 2.52 | 0/9 |
| 7 | K24E W56A Q95M | ND 2.74 ND | 0/9 |
| 8 | L30F Q96I L100D | 2.22 2.61 2.72 | 3/9 (3.22) |
| 9 | Y31C K36V Q95C | 2.14 1.87 1.84 | 1/9 (3.69) |
| 10 | N37Y Q96K H98S | ND ND 3.26 | 0/9 |
| 11 | W56L S58C H98W | 3.83 4.24 3.87 | 6/9 (4.91) |
| 12 | R60T E61V L102Y | ND 2.91 3.88 | 1/9 (3.43) |
| 13 | R60E E61C S103Y | ND ND ND | 1/9 (3.24) |
| 14 | S25F Y97A L100P | 4.39 4.38 5.38 | 3/9 (4.30) |
| 15 | L30S W56L L100K | 5.47 ND 3.98 | 1/9 (4.27) |
| 16 | R60W P101E S103D | 4.06 ND ND | 3/9 (4.01) |
| 17 | S38A E61K L102K | ND ND 4.05 | 2/9 (4.69) |
| 18 | S26R W56Y Q96L | 2.62 2.39 2.74 | 0/9 |
| 19 | V29Y Y31P Q96I | 3.60 3.48 4.47 | 4/9 (4.65) |
| 20 | K36P N37F Y97Q | ND ND ND | 0/9 |
| 21 | S25C Q95D Q96D | 1.39 1.45 1.34 | 3/9 (3.58) |
| 22 | N35L K36R H98E | ND ND ND | 2/9 (3.83) |
| 23 | L100M P101H L102Q | 2.86 3.05 3.07 | 3/9 (4.98) |
| 24 | E32H R34N S103R | 1.55 1.33 1.44 | 0/9 |
| 25 | L30Q E32Q S38T | 2.89 ND ND | 1/9 (3.18) |
| 26 | S33M S62P Y97E | 2.76 2.97 2.00 | 1/9 (2.86) |
| 27 | Q27A V39R R99T | ND ND ND | 1/9 (3.40) |
| 28 | Y97N P101W S103H | ND ND ND | 2/9 (4.00) |
| 29 | Y31M R99L | 0.74 0.92 0.88 | 4/9 (3.89) |
| 30 | Y31T L100C P101D | 1.31 1.26 1.34 | 3/9 (4.92) |
| 31 | S38F Q96W L102S | 4.88 ND ND | 0/9 |
| 32 | S33N A40E Y97M | 4.69 ND ND | 0/9 |
| 33 | K24H S26R R99H | 0.79 0.99 1.03 | 2/9 (4.04) |
| 34 | S38I A40G H98Y | ND ND ND | 0/9 |
| 35 | S28C R99K L100I | ND ND ND | 0/9 |
| 36 | N35H R99E L102D | 1.16 1.56 1.61 | 2/9 (3.71) |
| 37 | T59Y Y97W R99H | 3.94 ND ND | 1/9 (5.48) |
| 38 | N35V R60C P101C | ND ND ND | 0/9 |
| 39 | S33W A40E S62L | ND 4.53 4.17 | 0/9 |
| 40 | T59P R99N | ND ND ND | 0/9 |
| 41 | S38P A57N Q96A | ND 3.63 ND | 1/9 (4.15) |
| 42 | N37C A40R A57G | ND ND ND | 1/9 (4.74) |
| 43 | K24I S26D A57L | ND ND ND | 0/9 |
| 44 | K24H S25H | 1.15 1.24 1.32 | 0/9 |
| 45 | P101W S103F | 1.90 2.78 1.87 | 1/9 (3.59) |
| 46 | N35K T59C R99L | 1.85 1.91 1.79 | 1/9 (4.16) |

A selection of 4 entries from above:

| changes | replicates, log10 nM | empty controls |
|---|---|---|
| S25C Q95D Q96D | 1.39 1.45 1.34 | 3/9 (3.58) |
| T59P R99N | ND ND ND | 0/9 |
| S33M S62P Y97E | 2.76 2.97 2.00 | 1/9 (2.86) |
| S26R W56Y Q96L | 2.62 2.39 2.74 | 0/9 |

Values reported by Engelhart et al. 2022, doi:10.1038/s41597-022-01779-4 (FLAb copy).